The results in this text go back to publication PMC4210897, “Antimicrobial Activity of Peptides Derived from Olive Flounder Lipopolysaccharide Binding Protein/Bactericidal Permeability-Increasing Protein (LBP/BPI)” (Marine Drugs, 2014).

The test system of this series is human red blood cells (RBCs, blood type O). In words: Hemolytic activity assay. The conditions noted are these: 3% hematocrit, 60 min, 37 °C, even at 12.5 μg/mL. In kind it is cell-based. On the procedure:
The hemolytic activity of the peptides was determined using human red blood cells (RBCs, blood type O). The RBCs were collected from citric acid-treated blood by centrifugation at 3000× g for 5 min and washed three times with 10 mM PB (pH 7.4) containing 150 mM NaCl to remove the plasma and buffy coat. A suspension of 3% hematocrit in buffer with or without peptides was incubated for 60 min at 37 °C. Hemolysis was expressed as the hemoglobin content obtained from the absorbance of the supernatant at 405 nm after centrifugation at 3000× g for 5 min. A 100% hemolysis was determined based on hemoglobin release after the addition of 0.1% Triton X-100. The hemolysis percentage of the peptides was calculated using the following formula: % Hemolysis = [(Abs405nm in the peptide solution − Abs405nm in buffer)/(Abs405nm in 0.1% Triton X-100 − Abs405nm in buffer)] × 100
Hemolytic assays were performed in triplicate and the results were averaged.

Turning to Piscidin 1 [reference compound], the “Hemolysis at 12.5 μg/mL” value was “strong hemolysis”.
